# In patent US20100152429A1, “SODIUM SALT OF DISACCHARIDE COMPOUND, METHOD FOR PRODUCING THE SAME, AND USE OF THE SAME” (Eisai R&D Management Co., Ltd., priority 2006, published 2010):
# Assay: Storage Safety Test: impurity generation on storage at 25° C., HPLC;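 also: HPLC peak area percentages of three decomposition products, each sample run alongside a methanol-only blank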
# Assay type: physicochemical
# Conditions: stored at 25° C.; for Impurity generation ratio Impurity A / Impurity generation ratio Impurity B / Impurity generation ratio Impurity C: Table 5 summary, monthly basis, percentage of area; for Impurity A Generation ratio / Impurity B Generation ratio / Impurity C Generation ratio: converted to a monthly basis
# Procedure: The salts of examples 2-4 and comparative example 1 were put in glass bottles with screw caps, and stored for 30 days at 25° C., and the generation ratio of impurities A, B and C were determined as follows.
# Each salt of examples 2-4 and comparative example 1 was dissolved in methanol to make a solution of concentration 5 mg/ml. When HPLC analysis was performed under the conditions shown in Table 1 for each solution and blank solution (methanol only), three types of decomposition product were identified, and the generation ratio (converted to a monthly basis) was calculated for each of the three decomposition products (impurities A, B and C) as a percentage of area.
Compound,Impurity generation ratio Impurity A,Impurity generation ratio Impurity B,Impurity generation ratio Impurity C,Impurity A Generation ratio,Impurity B Generation ratio,Impurity C Generation ratio,further results
CCCCCC/C=C\CCCCCCCCCC(=O)N[C@H]1[C@H](OC[C@H]2O[C@H](OP(=O)(O)O)[C@H](NC(=O)CC(=O)CCCCCCCCCCC)[C@@H](OCCCCCCCCCC)[C@@H]2O)O[C@H](COC)[C@@H](OP(=O)(O)O)[C@@H]1OCC[C@@H](CCCCCCC)OC [Example 2],0.000,0.000,0.282,0.00 %/month,0.00 %/month,0.282 %/month,–
"CCCCCCC=CCCCCCCCCCC(=O)NC1C(OCC2OC(OP(=O)([O-])[O-])C(NC(=O)CC(=O)CCCCCCCCCCC)C(OCCCCCCCCCC)C2O)OC(COC)C(OP(=O)([O-])[O-])C1OCCC(CCCCCCC)OC.[Na+].[Na+].[Na+].[Na+] (stereo not drawn) [Comparative Example 1, reference compound]",0.729,3.117,0.033,0.729 %/month,3.117 %/month,0.033 %/month,–
CCCCCC/C=C\CCCCCCCCCC(=O)N[C@H]1[C@H](OC[C@H]2O[C@H](OP(=O)([O-])[O-])[C@H](NC(=O)CC(=O)CCCCCCCCCCC)[C@@H](OCCCCCCCCCC)[C@@H]2O)O[C@H](COC)[C@@H](OP(=O)([O-])[O-])[C@@H]1OCC[C@@H](CCCCCCC)OC.[Na+].[Na+].[Na+].[Na+] [Example 4],–,–,–,–,–,–,Impurity generation ratio Impurity A (listed as Ex. 4): 0.363; Impurity generation ratio Impurity B (listed as Ex. 4): 1.455; Impurity generation ratio Impurity C (listed as Ex. 4): 0.063; Impurity A Generation ratio (listed as 3.93 Na salt): 0.363 %/month; Impurity B Generation ratio (listed as 3.93 Na salt): 1.455 %/month; Impurity C Generation ratio (listed as 3.93 Na salt): 0.063 %/month
CCCCCC/C=C\CCCCCCCCCC(=O)N[C@H]1[C@H](OC[C@H]2O[C@H](OP(=O)([O-])[O-])[C@H](NC(=O)CC(=O)CCCCCCCCCCC)[C@@H](OCCCCCCCCCC)[C@@H]2O)O[C@H](COC)[C@@H](OP(=O)([O-])[O-])[C@@H]1OCC[C@@H](CCCCCCC)OC.[Na+].[Na+].[Na+].[Na+] [Example 3],–,–,–,–,–,–,Impurity generation ratio Impurity A (listed as Ex. 3): 0.072; Impurity generation ratio Impurity B (listed as Ex. 3): 0.267; Impurity generation ratio Impurity C (listed as Ex. 3): 0.072; Impurity A Generation ratio (listed as 3.67 Na salt): 0.072 %/month; Impurity B Generation ratio (listed as 3.67 Na salt): 0.267 %/month; Impurity C Generation ratio (listed as 3.67 Na salt): 0.072 %/month
